Antibody variant affinities, Ab-14 light chain, assay B

Antigen: PDVDLGDISGINAS, a 14-residue peptide of the SARS-CoV-2 spike HR2 region.

Each scFv is VH, the linker GGGGSGGGGSGGGGS, VL, as in the parent Ab-14, and differs from it in the CDRs of the light chain only.
VH: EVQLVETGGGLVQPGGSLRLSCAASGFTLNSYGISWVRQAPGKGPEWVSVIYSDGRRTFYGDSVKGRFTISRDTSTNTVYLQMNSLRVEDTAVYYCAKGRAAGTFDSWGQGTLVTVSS
VL: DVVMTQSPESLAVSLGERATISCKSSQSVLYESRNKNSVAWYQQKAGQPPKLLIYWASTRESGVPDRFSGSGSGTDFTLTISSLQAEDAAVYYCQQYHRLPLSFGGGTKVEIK

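The starting antibody came from a phage panning campaign against this peptide. Designed CDR sequences, proposed from the first random library and measured here. Several design methods are mixed in this list. The scFvs were displayed on barcoded MATa yeast, the peptide on MATalpha yeast. After mating in shaken culture at 30 °C for 16 h, diploids were selected and their barcode pairs sequenced. Each replicate has its own calibration line, from reference interactions of the BCL2 family. The assay was run in six technical replicates.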

Variants are written as CDR1, CDR2 and CDR3 of the light chain (limits as in the source). Parent: KSSQSVLYESRNKNSVA, WASTRES, QQYHRLPLS. Variants here have more than six changes. Values are log10 of the apparent Kd in nM; lower means stronger binding. A mean of the replicates is given; it leaves out those without a signal. Where no diploid with the target was found in that replicate, the entry reads "ND": below detection, most likely a poor binder, though not proof of it. The list is sorted by this average, lowest first, undetected variants last.

CDR-L1,CDR-L2,CDR-L3,"replicates, log10 nM","mean, log10 nM",empty controls
TLGDVTRMQSNKKNSIA,DMSNRAD,QQYHRLPLS,-0.07 / -0.34 / -0.07 / -0.37 / -0.30 / 0.30,-0.14,0 of 18
KVSQSTLYESLMKNSVA,NASVRSQ,QQYHRLPLS,0.21 / 0.06 / -0.11 / -0.22 / -0.10 / 0.08,-0.01,2 of 18 (3.09)
KLSGSDLYESRNCNNVA,NASQREV,QQYHRLPLS,0.22 / 0.06 / -0.04 / -0.04 / -0.04 / 0.30,0.08,2 of 18 (2.41)
KISMLQRYESQAKNSIA,EMSRREE,QQYHRLPLS,0.24 / 0.14 / 0.01 / 0.09 / 0.06 / 0.09,0.11,2 of 18 (3.42)
KIDQWKLGESRNKNSVA,DASTRMS,QQYHRLPLS,0.14 / 0.03 / 0.15 / -0.05 / 0.19 / 0.27,0.12,2 of 18 (2.93)
TLGNQPTEMRDNKHAVA,DDHQRDR,QQYMRLPLS,0.19 / 0.16 / 0.42 / 0.28 / 0.12 / 0.23,0.24,0 of 18
KIGQQVTYESTIKNAIA,QMTTREE,QQYHRLPLS,0.44 / 0.16 / 0.17 / 0.27 / 0.31 / 0.19,0.26,1 of 18 (2.44)
KLSQLFYKESKNKNNVA,EMTTRGK,QQYDRLPLS,0.37 / 0.69 / 0.09 / 0.26 / -0.05 / 0.74,0.35,0 of 18
ALSQLELGESRNWNSVA,NASTREK,QQYHRLPLS,0.40 / 0.40 / 0.46 / 0.28 / 0.30 / 0.29,0.35,0 of 18
KIGQQVTYESTMNNAIA,QMTTREE,QQYHRLPLS,0.39 / 0.48 / 0.12 / 0.19 / 0.41 / 0.61,0.37,2 of 18 (3.70)
KIGQMVTGETHNKNSIA,QMTTREG,QQYHRLPLS,0.48 / 0.81 / 0.36 / 0.43 / 0.68 / 0.42,0.53,0 of 18
TLTQVQGMESHNKDSVA,DLSTRGN,QQYHRLPLS,1.28 / 0.36 / 0.59 / 0.42 / 0.27 / 0.60,0.59,0 of 18
KQQQSWDGESRNKNSVA,HASKRES,QQYHRLPLS,0.34 / 1.00 / 0.61 / 0.81 / 0.68 / 1.01,0.74,0 of 18
TLGQVTMQLSRDKNSVA,DASTSED,QQYDRLPLS,0.97 / 1.13 / 0.43 / 0.52 / 0.81 / 0.62,0.75,1 of 18 (1.88)
KMQGSVMMLSRNCNSVA,QASTREE,QQYHRLPLS,0.77 / 0.76 / 0.65 / 0.70 / 0.87 / 0.87,0.77,3 of 18 (3.54)
QIMEEQSMRTEATWNIA,QGEQKVH,QQYFRLPLA,0.81 / 0.58 / 1.16 / 0.81 / 0.58 / 0.89,0.80,0 of 18
KLNQDPVLKTNINNSVA,DHSEVVQ,QQYFHLPLQ,1.50 / 0.93 / 0.21 / 0.69 / 0.65 / 0.94,0.82,0 of 18
GIHSQMVGTSAVKENVA,NANERLE,QQYQRLPLT,0.63 / 1.01 / ND / 0.94 / 0.93 / ND,0.88,0 of 18
SLTSHEEEIEGAEASVA,EASMLES,QQYHRLPLM,0.76 / 0.79 / 0.76 / 0.76 / 1.23 / 1.24,0.92,2 of 18 (2.83)
NLNTEYVTGTSNWNNIA,HGSMVEA,QQYFQLPIG,1.53 / 0.87 / 1.22 / 0.48 / 0.67 / 1.45,1.04,0 of 18
KFMMSGEYQMHEQNNIA,QGEIKCK,QQYFRLPIT,ND / ND / ND / 1.06 / ND / ND,1.06,0 of 18
MFALDQDSMGDAKNSIA,DRNTKAH,QQYSRLPLV,1.26 / 0.85 / 1.27 / 1.05 / 1.15 / 1.09,1.11,2 of 18 (3.24)
IISQVDDYLMRNTNSIA,DQTTRGS,QQYDRLPLS,1.30 / 0.94 / 0.95 / 1.58 / 1.02 / 0.94,1.12,1 of 18 (1.63)
KISINQMHYYKMRSNIA,NTSQKAM,QQYFHLPLM,1.46 / 1.05 / 0.81 / 1.18 / 1.11 / 1.16,1.13,3 of 18 (3.11)
HMHTLMYTENIGENSIA,DANLHVD,QQYFRLPIS,1.65 / 1.26 / 1.14 / 1.25 / 0.74 / 0.94,1.16,0 of 18
KLRNDFMENKQNQSNIA,AGHESIK,QQYSMLPLS,1.51 / 1.03 / 1.08 / 1.26 / 0.95 / 1.35,1.20,1 of 18 (2.16)
LISGVWDYGSRNYNSVA,QTSTRES,QQYDRLPLV,1.35 / 0.87 / 1.41 / 1.08 / 1.23 / 1.40,1.23,1 of 18 (2.71)
IISQSMLYETATHNSIA,QTSTREE,QQYHHLPLI,1.31 / 0.55 / 2.33 / 0.77 / 2.19 / 0.92,1.35,0 of 18
KLSCSWLMESRNSNSVA,HASKRMS,QQYHRLPLS,1.04 / 0.92 / 2.03 / 0.87 / 2.86 / 1.02,1.46,0 of 18
TISQSTNMTSHGRNSVA,QAEMRES,QQYDRLPLS,1.77 / 0.77 / 0.43 / 1.86 / 1.82 / 2.31,1.49,1 of 18 (1.99)
NLMGQGDHSIKHANSIA,NVDLVDM,QQYAHLPLS,1.23 / 1.97 / 1.84 / 1.20 / 1.36 / 1.61,1.54,0 of 18
TIGGTLMYGMRNYSNVA,EVSERLN,QQYDRLPLI,1.34 / 2.06 / ND / 1.89 / 1.13 / ND,1.60,0 of 18
NLSIQCQHQNMSANAVA,QTEIREV,QQYAQLPLA,1.29 / 1.66 / ND / ND / 3.08 / 1.58,1.90,0 of 18
HINGLEDQFPDSWNAIA,QETLRNL,QQYFSLPLS,1.21 / 2.07 / 1.85 / 2.84 / 3.17 / 2.14,2.21,0 of 18
KLSYVTHSESRNKNSIA,EMVTREV,QQYDRLPLS,1.50 / 1.34 / 2.10 / ND / 2.94 / 4.34,2.44,0 of 18
KLRWPCTTDMNRMSSIA,ESEVAND,QQYAHLPLS,1.99 / ND / ND / 2.00 / 3.44 / 2.40,2.46,0 of 18
MISQVMNTLTRHGNNVA,DLEERED,QQYFRLPLS,ND / ND / ND / ND / ND / ND,ND,0 of 18
KIAATVLYESGLANSVA,QNSTRES,QQYHRLPLS,ND / ND / ND / ND / ND / ND,ND,1 of 18 (0.92)
HVSEMTFAQMKARNSVA,ENNTREA,QQYDRLPLS,ND / ND / ND / ND / ND / ND,ND,0 of 18
VFSGLFQGDEQSYNSIA,EASLSNT,QQYISLPLS,ND / ND / ND / ND / ND / ND,ND,0 of 18

A sequence measured in both rounds can read differently, since the two assays cover different ranges. The authors averaged sequences with at least three values out of six and counted those with two or fewer as poor binders. Three control strains display no target. For all light chain designs, 4% of the pairings with them gave a signal, with a median of 2.64 and one signal in twenty below 1.59, so weak values seen in few replicates may be background. The control count says in how many pairings with the empty strains this scFv gave a signal, with their mean in brackets.

The measurements come from Li et al. 2023 (doi:10.1038/s41467-023-39022-2) through the FLAb antibody collection.